scFv variants of Ab-95 (light chain) against a SARS-CoV-2 spike peptide

From the AlphaSeq antibody data of Engelhart et al. 2022 (doi:10.1038/s41597-022-01779-4), copy in the FLAb collection.

Binding partner: SARS-CoV-2 spike HR2 peptide, sequence PDVDLGDISGINAS.

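The parent was found by panning a naive human phage display library on the peptide. AAYL52 was designed without a model: most single CDR substitutions and a random sample of double and triple ones. The scFvs were displayed on barcoded MATa yeast, the peptide on MATalpha yeast. Mating (16 h, 30 °C) was followed by selection of diploids and sequencing of their barcodes. Read counts were normalised to the haploid input and turned into Kd by a linear fit to BCL2-family pairs of known affinity, for each replicate. Mating was done three times.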

Ab-95 is the parent antibody, in scFv form: VH, then three GGGGS repeats, then VL. The heavy chain is unchanged in all variants.
VH: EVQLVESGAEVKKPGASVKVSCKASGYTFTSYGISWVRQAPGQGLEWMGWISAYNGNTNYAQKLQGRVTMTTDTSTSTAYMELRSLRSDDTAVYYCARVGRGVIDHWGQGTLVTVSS
VL: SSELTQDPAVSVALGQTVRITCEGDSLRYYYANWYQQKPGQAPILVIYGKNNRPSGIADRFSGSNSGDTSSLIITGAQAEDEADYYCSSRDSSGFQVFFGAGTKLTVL

Positions count from residue 1 of the parent VL; K50N puts N in place of K.
The read-out is the apparent dissociation constant on a log10 scale (nM): the lower, the stronger.
Replicates are averaged; those with no signal do not enter the mean.
Where no diploid with the target was found in that replicate, the entry reads "ND": below detection, most likely a poor binder, though not proof of it.
Background: pairings of library AAYL52 with three empty control strains gave a value in 28% of cases (median 3.91, 5th percentile 2.90). Values in that range, when seen in few replicates, are hard to tell from nonspecific mating. The control count says in how many pairings with the empty strains this scFv gave a signal, with their mean in brackets.

changes	log10 Kd, replicates	log10 Kd (nM), mean	signal with controls
K50N S55T F95M	2.78 / 2.47 / 2.02	2.42	6 of 9 (4.04)
N33V G49A F98Q	ND / 3.75 / ND	3.75	3 of 9 (3.18)
P54I V97I F98R	ND / ND / ND	ND	2 of 9 (3.22)
N52Q R53N	2.73 / 2.70 / 2.95	2.79	4 of 9 (4.47)
E23C Y29S Y31L	2.46 / 2.43 / 1.89	2.26	0 of 9
Y29C A32R F95R	3.11 / ND / ND	3.11	1 of 9 (4.04)
S26M Y29C G49R	ND / 5.80 / ND	5.80	2 of 9 (4.63)
Y31N N52W S92I	1.62 / 1.63 / 1.07	1.44	1 of 9 (5.07)
K50N S55V S93A	2.08 / 2.48 / 1.95	2.17	3 of 9 (4.30)
Y29T N51M V97D	4.43 / 3.84 / ND	4.13	2 of 9 (4.39)
N51K R90T D91A	ND / ND / ND	ND	3 of 9 (3.73)
S88T F95Y Q96D	4.68 / ND / 3.13	3.91	0 of 9
D25Y A32G S88T	ND / 4.59 / ND	4.59	0 of 9
D91W V97G	4.51 / ND / ND	4.51	2 of 9 (3.30)
E23F R28H S93W	2.97 / 3.05 / 3.99	3.33	1 of 9 (4.21)
N33E R53L S88P	ND / 5.73 / 4.30	5.02	1 of 9 (2.96)
G24Q D25S F98S	ND / ND / ND	ND	1 of 9 (3.16)
E23D A32N K50P	4.32 / ND / ND	4.32	4 of 9 (3.65)
Y29N Y30D N52R	2.13 / 2.28 / 2.25	2.22	3 of 9 (3.67)
G24R K50C R53K	ND / 4.36 / ND	4.36	5 of 9 (3.81)
L27N Y31T	3.15 / 2.71 / 2.76	2.88	1 of 9 (4.40)
R53W S89I R90A	5.41 / ND / ND	5.41	3 of 9 (4.15)
L27I P54K S55F	4.80 / ND / ND	4.80	6 of 9 (4.26)
L27Q K50H N51R	3.85 / 5.73 / ND	4.79	1 of 9 (3.60)
N52Q R53V D91I	3.13 / 2.33 / 2.04	2.50	4 of 9 (4.16)
S26Y Y30H R53F	3.74 / 3.00 / 4.30	3.68	2 of 9 (3.99)
S26V S55V S89P	3.50 / 4.55 / 3.49	3.85	6 of 9 (4.35)
D25M L27F N51K	ND / ND / ND	ND	1 of 9 (3.29)
R28I V97K F98Q	2.99 / ND / ND	2.99	0 of 9
R53E S92N S93Y	4.84 / 4.89 / ND	4.86	3 of 9 (3.63)
R90M D91M S92T	2.24 / 3.43 / 2.09	2.59	5 of 9 (4.49)
N52V R53H F98T	2.85 / 2.85 / 3.99	3.23	3 of 9 (3.47)
R53D R90D F98T	ND / ND / ND	ND	2 of 9 (3.65)
S55Y F98K	3.48 / 2.48 / 2.78	2.91	0 of 9
S26D Y31C N33H	ND / 4.29 / ND	4.29	4 of 9 (3.40)
Y29F A32C V97M	ND / ND / 4.33	4.33	3 of 9 (4.05)
P54C S93N F95P	ND / 3.49 / ND	3.49	2 of 9 (5.17)
D25R N52T S89F	2.76 / 3.65 / 2.97	3.13	2 of 9 (3.68)
Y29I D91H Q96T	ND / ND / 3.71	3.71	1 of 9 (3.99)
S26M N33E S55G	5.48 / 3.33 / 4.30	4.37	2 of 9 (3.42)
G24E Y30F F98M	3.81 / 4.35 / 2.96	3.71	2 of 9 (4.23)
P54V S88K R90I	3.74 / 5.06 / ND	4.40	4 of 9 (3.62)
S93Q Q96T	1.79 / 1.99 / 1.51	1.77	2 of 9 (4.88)

6 of these entries, quoted again:

changes	log10 Kd, replicates	log10 Kd (nM), mean	signal with controls
N51K R90T D91A	ND / ND / ND	ND	3 of 9 (3.73)
L27I P54K S55F	4.80 / ND / ND	4.80	6 of 9 (4.26)
S26Y Y30H R53F	3.74 / 3.00 / 4.30	3.68	2 of 9 (3.99)
S93Q Q96T	1.79 / 1.99 / 1.51	1.77	2 of 9 (4.88)
P54C S93N F95P	ND / 3.49 / ND	3.49	2 of 9 (5.17)
R28I V97K F98Q	2.99 / ND / ND	2.99	0 of 9